Reference: US8017638B2, “Isoxazole derivative and isothiazole derivative having inhibitory activity on 11β-hydroxysteroid dehydrogenase type 1” (Shionogi & Co., Ltd., priority 2006, dated 2011)

The chains behind the UniProt entries cited, without tags or fusion partners.
UniProt P50172, whole entry: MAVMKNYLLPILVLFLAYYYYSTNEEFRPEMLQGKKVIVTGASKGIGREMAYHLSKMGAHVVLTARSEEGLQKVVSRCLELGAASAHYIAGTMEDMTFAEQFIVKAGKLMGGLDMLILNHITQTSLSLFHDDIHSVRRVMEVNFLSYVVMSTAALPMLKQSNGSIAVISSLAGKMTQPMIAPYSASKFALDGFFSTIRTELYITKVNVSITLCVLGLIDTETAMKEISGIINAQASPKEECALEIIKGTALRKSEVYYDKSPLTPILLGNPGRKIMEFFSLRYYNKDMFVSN
UniProt P28845, whole entry: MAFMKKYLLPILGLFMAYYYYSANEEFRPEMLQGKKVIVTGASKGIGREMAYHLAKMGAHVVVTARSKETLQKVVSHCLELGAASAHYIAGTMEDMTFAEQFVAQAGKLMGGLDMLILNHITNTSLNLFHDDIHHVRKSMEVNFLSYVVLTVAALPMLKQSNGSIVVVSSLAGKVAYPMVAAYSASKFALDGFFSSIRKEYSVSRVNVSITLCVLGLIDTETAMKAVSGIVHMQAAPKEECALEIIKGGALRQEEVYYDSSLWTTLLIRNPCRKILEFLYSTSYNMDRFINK

Tests used:
[1] = target: recombinant mouse 11β-HSD1 (Mus musculus, UniProt P50172); experiment: Enzyme activity assay on mouse 11β-HSD1 (HTRF, corticosterone production); settings: read-out: mouseIC50, recombinant mouse 11β-HSD1, 2 μM 11-dehydrocorticosterone as substrate, 2 hours at 37° C., tested form: hydrochloride
Method: Evaluation of 11β-HSD1 Inhibitors (Enzyme Activity Assay on Mouse 11β-HSD1)
Enzymatic activity for mouse 11β-HSD1 activity was determined in a 10 μl final volume of assay mixture containing 50 mM sodium phosphate buffer (pH 7.6), 1 mg/ml bovine serum albumin, 0.42 mg/ml NADPH, 1.26 mg/ml glucose-6-phosphate, glucose-6-phosphate dehydrogenase, test compound, recombinant mouse 11β-HSD1, and 2 μM 11-dehydrocorticosterone as substrate. The reaction was started with the addition of 11-dehydrocorticosterone. After incubation for 2 hours at 37° C., 5 μl of europium cryptate-labelled anti-cortisol antibody and 5 μl of XL665-labeled cortisol were added. After further incubation for 2 hours at room temperature, the HTRF signal was measured. The corticosterone production was quantitated by a standard curve generated with several known concentrations of corticosterone in each assay.
(§1) The amount of corticosterone production without compounds served as control, and the percent inhibition by compound at each concentration was calculated. The IC50 value of the compound for 11β-HSD1 was obtained using the inhibition curve generated by plotting the percent inhibition versus the concentration of test compound.

[2] = target: recombinant human 11β-HSD1 (Homo sapiens, UniProt P28845); experiment: Enzyme activity assay on human 11β-HSD1 (HTRF, cortisol production); settings: read-out: humanIC50, recombinant human 11β-HSD1, 5 μM cortisone as substrate, 2 hours at 37° C., tested form: hydrochloride
Method: Evaluation of 11β-HSD1 Inhibitors (Enzyme Activity Assay on Human 11β-HSD1)
Enzymatic activity for human 11β-HSD1 was determined in a 10 μl final volume of assay mixture containing 50 mM sodium phosphate buffer (pH 7.6), 1 mg/ml bovine serum albumin, 0.42 mg/ml NADPH, 1.26 mg/ml glucose-6-phosphate, glucose-6-phosphate dehydrogenase, test compound, recombinant human 11β-HSD1, and 5 μM cortisone as substrate. The reaction was started with the addition of cortisone. After incubation for 2 hours at 37° C., 5 μl of europium cryptate-labelled anti-cortisol antibody and 5 μl of XL665-labeled cortisol were added. After further incubation for 2 hours at room temperature, the homogeneous time-resolved fluorescence (HTRF) signal was measured. The cortisol production was quantitated by a standard curve generated with several known concentrations of cortisol in each assay.
as §1, with “amount of cortisol production without” for “amount of corticosterone production without”, “inhibition by test compound at” for “inhibition by compound at”

SMILES: CC(C)Sc1c(OCC(C)(C)C(=O)NC2CCNCC2)noc1C(=O)NC1C2CC3CC(C2)CC1C3 (centres unmarked)
- IC50 [1]: 170 nM
- IC50 [2]: 820 nM
